Sequences of proteins named here, by UniProt entry; tags and fusion partners are left off.
UniProt P29475, whole entry: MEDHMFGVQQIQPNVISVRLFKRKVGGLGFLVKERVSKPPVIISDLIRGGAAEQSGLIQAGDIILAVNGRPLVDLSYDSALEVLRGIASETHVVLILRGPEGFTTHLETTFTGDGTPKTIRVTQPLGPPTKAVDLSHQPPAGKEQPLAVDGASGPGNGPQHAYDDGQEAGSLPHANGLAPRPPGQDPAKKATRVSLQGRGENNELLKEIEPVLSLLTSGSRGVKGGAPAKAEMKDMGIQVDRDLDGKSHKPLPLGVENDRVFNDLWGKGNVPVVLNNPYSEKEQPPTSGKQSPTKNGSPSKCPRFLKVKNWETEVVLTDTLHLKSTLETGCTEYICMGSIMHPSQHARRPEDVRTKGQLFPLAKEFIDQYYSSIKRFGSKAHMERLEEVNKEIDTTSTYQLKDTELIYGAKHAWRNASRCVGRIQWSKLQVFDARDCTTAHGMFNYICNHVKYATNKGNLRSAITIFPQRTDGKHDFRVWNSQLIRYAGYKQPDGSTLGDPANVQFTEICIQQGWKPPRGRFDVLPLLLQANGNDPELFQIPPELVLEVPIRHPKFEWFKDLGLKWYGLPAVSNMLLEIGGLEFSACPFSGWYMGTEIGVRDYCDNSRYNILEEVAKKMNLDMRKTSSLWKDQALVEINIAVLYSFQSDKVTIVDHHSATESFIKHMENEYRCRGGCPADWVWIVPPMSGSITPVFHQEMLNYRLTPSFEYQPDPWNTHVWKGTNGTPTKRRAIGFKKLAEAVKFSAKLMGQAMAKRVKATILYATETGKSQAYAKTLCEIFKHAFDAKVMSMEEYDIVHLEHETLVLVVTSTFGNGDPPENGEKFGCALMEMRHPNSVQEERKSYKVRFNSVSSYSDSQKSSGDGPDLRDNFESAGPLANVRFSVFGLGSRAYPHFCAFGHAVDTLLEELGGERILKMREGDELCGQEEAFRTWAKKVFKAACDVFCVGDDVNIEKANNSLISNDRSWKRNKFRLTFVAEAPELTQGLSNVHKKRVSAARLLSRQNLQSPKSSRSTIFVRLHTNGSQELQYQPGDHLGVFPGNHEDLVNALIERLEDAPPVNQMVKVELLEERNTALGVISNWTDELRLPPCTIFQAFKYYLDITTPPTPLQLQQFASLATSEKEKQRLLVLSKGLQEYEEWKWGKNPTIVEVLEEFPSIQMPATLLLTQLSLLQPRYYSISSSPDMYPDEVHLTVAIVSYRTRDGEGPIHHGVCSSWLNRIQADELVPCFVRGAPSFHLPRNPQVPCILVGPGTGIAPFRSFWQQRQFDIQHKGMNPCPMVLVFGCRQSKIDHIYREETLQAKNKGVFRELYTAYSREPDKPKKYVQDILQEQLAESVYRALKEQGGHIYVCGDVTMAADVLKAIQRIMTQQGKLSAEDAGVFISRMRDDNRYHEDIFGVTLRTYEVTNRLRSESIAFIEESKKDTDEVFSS
UniProt P35228, whole entry: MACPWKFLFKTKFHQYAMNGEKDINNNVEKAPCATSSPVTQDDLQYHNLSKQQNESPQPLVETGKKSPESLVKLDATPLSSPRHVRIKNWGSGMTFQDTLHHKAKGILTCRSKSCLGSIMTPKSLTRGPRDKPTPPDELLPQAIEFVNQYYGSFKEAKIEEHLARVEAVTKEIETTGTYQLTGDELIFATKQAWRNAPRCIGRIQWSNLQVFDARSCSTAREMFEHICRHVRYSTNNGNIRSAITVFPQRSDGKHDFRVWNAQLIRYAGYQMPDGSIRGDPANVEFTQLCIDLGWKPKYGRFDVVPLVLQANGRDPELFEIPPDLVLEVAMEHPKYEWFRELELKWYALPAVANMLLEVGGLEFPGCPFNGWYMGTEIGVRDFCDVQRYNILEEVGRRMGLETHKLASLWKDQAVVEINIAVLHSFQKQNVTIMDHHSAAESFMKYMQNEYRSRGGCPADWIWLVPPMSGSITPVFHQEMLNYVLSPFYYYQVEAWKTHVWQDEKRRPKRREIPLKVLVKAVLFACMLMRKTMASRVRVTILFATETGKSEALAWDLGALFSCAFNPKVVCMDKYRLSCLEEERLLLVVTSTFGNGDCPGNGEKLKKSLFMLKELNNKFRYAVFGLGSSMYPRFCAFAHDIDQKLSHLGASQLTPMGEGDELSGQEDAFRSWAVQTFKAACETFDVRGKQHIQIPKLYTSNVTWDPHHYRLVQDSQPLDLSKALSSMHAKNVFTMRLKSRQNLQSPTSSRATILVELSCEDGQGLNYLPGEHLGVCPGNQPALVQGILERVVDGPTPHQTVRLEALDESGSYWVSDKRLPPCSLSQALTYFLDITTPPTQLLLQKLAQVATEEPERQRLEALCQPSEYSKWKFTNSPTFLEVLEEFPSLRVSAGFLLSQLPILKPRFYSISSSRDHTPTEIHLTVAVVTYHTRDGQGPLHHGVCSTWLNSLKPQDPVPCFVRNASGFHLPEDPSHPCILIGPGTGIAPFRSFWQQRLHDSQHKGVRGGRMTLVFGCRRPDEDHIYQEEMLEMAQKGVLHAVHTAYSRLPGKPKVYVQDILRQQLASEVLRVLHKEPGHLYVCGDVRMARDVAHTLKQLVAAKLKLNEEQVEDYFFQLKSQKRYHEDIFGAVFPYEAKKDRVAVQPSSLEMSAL

According to ChEMBL document CHEMBL1131208, “Substituted 2-iminopiperidines as inhibitors of human nitric oxide synthase isoforms” (J Med Chem, 1998):

Assays:
Nitric oxide synthase 1 = Nitric oxide synthase 1 (Homo sapiens, UniProt P29475); test: Inhibition of human Neuronal nitric oxide synthase
Nitric oxide synthase 3 = target: T1, Nitric oxide synthase 3 (Homo sapiens, UniProt P29474); test: inhibition of human endothelial constitutive Endothelial nitric oxide synthase (heNOS)
T1 sequence (P29474 whole entry): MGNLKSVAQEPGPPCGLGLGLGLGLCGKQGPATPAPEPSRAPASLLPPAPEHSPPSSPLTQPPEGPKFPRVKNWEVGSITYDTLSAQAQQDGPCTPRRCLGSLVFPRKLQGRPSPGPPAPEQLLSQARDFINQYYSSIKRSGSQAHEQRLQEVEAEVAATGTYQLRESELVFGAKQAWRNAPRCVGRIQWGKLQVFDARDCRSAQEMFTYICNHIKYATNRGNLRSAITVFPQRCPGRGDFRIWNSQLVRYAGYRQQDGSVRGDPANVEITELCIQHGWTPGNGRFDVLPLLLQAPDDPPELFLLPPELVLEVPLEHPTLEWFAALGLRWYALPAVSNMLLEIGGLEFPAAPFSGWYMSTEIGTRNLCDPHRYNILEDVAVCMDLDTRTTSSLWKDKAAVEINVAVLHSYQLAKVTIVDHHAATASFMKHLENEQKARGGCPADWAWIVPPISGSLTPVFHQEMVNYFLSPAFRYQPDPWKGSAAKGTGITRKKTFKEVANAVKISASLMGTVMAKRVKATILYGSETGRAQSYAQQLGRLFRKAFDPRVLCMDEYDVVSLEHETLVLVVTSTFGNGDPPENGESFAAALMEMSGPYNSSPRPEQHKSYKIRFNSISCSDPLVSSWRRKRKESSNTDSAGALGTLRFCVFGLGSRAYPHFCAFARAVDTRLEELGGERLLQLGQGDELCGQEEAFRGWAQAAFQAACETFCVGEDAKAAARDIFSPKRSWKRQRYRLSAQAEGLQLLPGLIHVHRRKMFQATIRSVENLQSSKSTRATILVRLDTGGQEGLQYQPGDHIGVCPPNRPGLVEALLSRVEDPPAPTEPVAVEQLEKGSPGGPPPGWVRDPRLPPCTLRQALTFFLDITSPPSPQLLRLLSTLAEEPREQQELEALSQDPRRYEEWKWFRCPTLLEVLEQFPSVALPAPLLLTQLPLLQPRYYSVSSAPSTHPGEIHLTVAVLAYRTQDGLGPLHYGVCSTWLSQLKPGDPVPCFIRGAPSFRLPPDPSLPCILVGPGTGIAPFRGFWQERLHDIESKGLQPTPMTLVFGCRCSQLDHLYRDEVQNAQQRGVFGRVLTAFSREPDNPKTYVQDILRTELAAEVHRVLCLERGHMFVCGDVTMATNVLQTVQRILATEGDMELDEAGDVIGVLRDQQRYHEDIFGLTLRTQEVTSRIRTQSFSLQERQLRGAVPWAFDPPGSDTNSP

[1] = target: Nitric oxide synthase, inducible (Homo sapiens, UniProt P35228); test: Inhibition of human Inducible nitric oxide synthase

For `CC1CCC(N)=NC1` (stereo not drawn), the IC50 (Nitric oxide synthase 1) was 4.5 µM.
In the case of `NC1=NC(Cc2ccccc2)CCC1` (stereo not drawn), the IC50 (Nitric oxide synthase 3) is reported as 44 µM and the IC50 [1] is reported as 9.2 µM.
